Tests used:
[1] = target: Rat SERT (Rattus norvegicus, UniProt P31652); experiment: biochemical
[2] = Plasma and brain unbound concentrations by LC/MS/MS; details: rat, intraperitoneal, 75 min post-dosing

The chains behind the UniProt entries cited, without tags or fusion partners.
UniProt P31652, whole entry: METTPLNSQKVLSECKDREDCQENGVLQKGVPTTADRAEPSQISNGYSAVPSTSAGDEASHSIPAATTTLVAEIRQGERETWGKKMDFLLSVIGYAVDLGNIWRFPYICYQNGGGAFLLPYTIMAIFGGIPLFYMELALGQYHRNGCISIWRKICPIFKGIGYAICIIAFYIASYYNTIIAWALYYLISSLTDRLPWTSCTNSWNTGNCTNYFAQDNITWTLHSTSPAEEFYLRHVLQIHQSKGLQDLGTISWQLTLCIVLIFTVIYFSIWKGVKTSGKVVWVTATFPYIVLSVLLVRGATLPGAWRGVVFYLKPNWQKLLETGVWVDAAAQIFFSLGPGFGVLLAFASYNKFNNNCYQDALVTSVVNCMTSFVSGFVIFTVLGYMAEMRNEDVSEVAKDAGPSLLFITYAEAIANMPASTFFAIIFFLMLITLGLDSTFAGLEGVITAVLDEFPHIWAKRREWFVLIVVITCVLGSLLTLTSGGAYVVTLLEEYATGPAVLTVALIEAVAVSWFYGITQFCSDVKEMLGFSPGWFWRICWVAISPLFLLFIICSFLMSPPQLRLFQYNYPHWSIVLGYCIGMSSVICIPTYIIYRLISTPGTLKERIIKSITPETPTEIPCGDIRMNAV

CNCC[C@@H](Oc1ccccc1C)c1ccccc1 [atomoxetine]
Ki [1]: 15.8 nM

CNCCC(Oc1ccc(C(F)(F)F)cc1)c1ccccc1 (stereo not shown) [fluoxetine]
concentration at 75 min ([2]; brain, 1 mg/kg, [Brain]unbound, fluoxetine 1 mg/kg, − esreboxetine − morphine): 1.94 ± 1.2 ng/g
concentration at 75 min ([2]; brain, [Brain]unbound, fluoxetine 1 mg/kg + esreboxetine 10 + morphine 1 mg/kg): 1.55 ± 0.6 ng/g
concentration at 75 min ([2]; brain, [Brain]unbound, fluoxetine 1 mg/kg + morphine 1 mg/kg): 1.36 ± 0.6 ng/g
concentration at 75 min ([2]; plasma, 1 mg/kg, [Plasma]unbound, fluoxetine 1 mg/kg, − esreboxetine − morphine): 1.73 ± 1.5 ng/mL
concentration at 75 min ([2]; plasma, [Plasma]unbound, fluoxetine 1 mg/kg + esreboxetine 10 + morphine 1 mg/kg): 1.51 ± 0.5 ng/mL
concentration at 75 min ([2]; plasma, [Plasma]unbound, fluoxetine 1 mg/kg + morphine 1 mg/kg): 0.96 ± 0.3 ng/mL

Reference: article PMC3787017, “Relative Contributions of Norepinephrine and Serotonin Transporters to Antinociceptive Synergy between Monoamine Reuptake Inhibitors and Morphine in the Rat Formalin Model” (PLoS ONE, 2013)
